Assay results from patent publication EP1903056A2, “HLA-A1, -A2 -A3, -A24, -B7, and -B44 tumor associated antigen peptides and compositions” (priority 2002, dated 2004).
Like-named read-outs stand apart in the source and are kept apart here.

Tests used:
B*4001(B60) = B*4001(B60) (Homo sapiens, UniProt P01889, A65T/A93T/A95T/D138N/D98Y/E176V/E69K/N87E/Q56L/Q94N/R180L/S121R/S35A/S48T/T167S/V36M/W171L/Y33H/Y91S); assay: B44 supertype peptide binding, B*4001; conditions: read-out: B* 4001
B*4002 (B61) = B*4002 (B61) (Homo sapiens, UniProt P01889, A65T/A93T/A95T/D138N/D201E/D98Y/E176V/E204Q/E69K/K202T/N87E/Q56L/Q94N/R180L/S48T/Y33H/Y91S); assay: B44 supertype peptide binding, B*4002; conditions: read-out: B* 4002
B*1801 = B*1801 (Homo sapiens, UniProt P01889, A329T/A93T/A95T/C349S/D201E/D54G/D98Y/E176V/E187T/E204Q/E69T/K202T/Q94N/R155S/R180L/S121R/V306I/Y140S/Y195H/Y33H/Y91S); assay: B44 supertype peptide binding, B*1801
B*4501 = B*4501 (Homo sapiens, UniProt P01889, A329T/A65T/A93T/A95T/C349S/D138N/D201E/D98Y/E176V/E187L/E204Q/E69K/H137Y/K202T/L119W/N87E/Q56L/Q94N/R155S/R180D/S121R/S35A/S48T/V127L/V306I/V36M/W191S/Y140L/Y33H/Y91S); assay: B44 supertype peptide binding, B*4501; conditions: read-out: B* 4501
B*4402 = B*4402 (Homo sapiens, UniProt P01889, A223V/A65T/A93T/A95T/D201E/D98Y/E176V/E187L/E204Q/E69K/G107R/H137Y/K202T/L105A/L119I/N104T/N87E/Q56L/Q94N/R106L/R155S/R180D/S101N/S121R/S35A/S48T/T118I/V36M/W191S/Y140D/Y91S); assay: B44 supertype peptide binding, B*4402; conditions: read-out: B* 4402
[1] = CEA-derived B44 peptides, binding affinity, unit inferred
[2] = HER 2/neu-derived B44 peptides, Table 27
[3] = Table 29: MAGE2-derived B44 peptides

| SMILES | IC50 (B*1801; [2]) | IC50 (B*4001(B60); [2]) | IC50 (B*4402; [2]) | other results |
| --- | --- | --- | --- | --- |
| CC[C@H](C)[C@H](NC(=O)[C@H](CCC(=O)O)NC(=O)[C@@H]1CCCN1C(=O)[C@H](CCC(=O)O)NC(=O)[C@@H](N)CS)C(=O)N[C@@H](CCC(N)=O)C(=O)N[C@@H](CC(N)=O)C(=O)N[C@H](C(=O)N[C@H](C(=O)O)[C@@H](C)O)[C@@H](C)O [compound 407] | – | – | – | IC50 (B*4001(B60); [1]): 10.1 µM; IC50 (B*4002 (B61); [1]): 1.45 µM; IC50 (B*1801; [1]): 8.58 µM |
| CC[C@H](C)[C@H](NC(=O)[C@H](C)NC(=O)[C@@H](NC(=O)[C@@H]1CCCN1C(=O)[C@@H](NC(=O)[C@H](CCCCN)NC(=O)[C@@H](NC(=O)[C@H](CC(N)=O)NC(=O)[C@H](CCC(=O)O)NC(=O)CN)C(C)C)[C@@H](C)CC)C(C)C)C(=O)O [compound 464] | 0.563 µM | – | – | IC50 (B*4501; [2]): 0.198 µM |
| CC(C)C[C@H](NC(=O)CNC(=O)[C@H](CC(C)C)NC(=O)[C@H](Cc1ccc(O)cc1)NC(=O)[C@H](CCC(=O)O)NC(=O)[C@@H]1CCCN1C(=O)[C@H](CC(N)=O)NC(=O)[C@H](CCC(=O)O)NC(=O)[C@H](C)N)C(=O)N[C@@H](CC(=O)O)C(=O)N[C@H](C(=O)O)C(C)C [compound 470] | 11.9 µM | – | – | – |
| CSCC[C@H](N)C(=O)N[C@@H](CCC(=O)O)C(=O)N[C@@H](CC(C)C)C(=O)N[C@@H](C)C(=O)N[C@@H](C)C(=O)N[C@@H](CC(C)C)C(=O)N[C@@H](CS)C(=O)N[C@@H](CCCNC(=N)N)C(=O)N[C@@H](Cc1c[nH]c2ccccc12)C(=O)NCC(=O)O [compound 472] | 0.102 µM | 8.68 µM | – | IC50 (B*4002 (B61); [2]): 1.84 µM |
| CC(C)C[C@H](NC(=O)[C@@H](NC(=O)[C@H](C)NC(=O)[C@H](CC(C)C)NC(=O)[C@H](C)NC(=O)[C@H](Cc1ccc(O)cc1)NC(=O)[C@H](CC(N)=O)NC(=O)[C@H](CC(=O)O)NC(=O)[C@H](CCC(=O)O)NC(=O)[C@@H](N)Cc1ccccc1)C(C)C)C(=O)O [compound 474] | 0.321 µM | – | 2.84 µM | – |
| CC[C@H](C)[C@H](NC(=O)[C@H](CC(C)C)NC(=O)[C@@H](NC(=O)CNC(=O)CNC(=O)[C@H](CCCCN)NC(=O)[C@H](CC(C)C)NC(=O)[C@@H](NC(=O)[C@H](CCC(=O)O)NC(=O)[C@@H](N)[C@@H](C)O)[C@@H](C)CC)C(C)C)C(=O)O [compound 477] | 1.02 µM | 0.241 µM | – | IC50 (B*4002 (B61); [2]): 0.294 µM |
| CC[C@H](C)[C@H](NC(=O)[C@H](CC(N)=O)NC(=O)[C@H](C)NC(=O)[C@H](CO)NC(=O)[C@@H](NC(=O)[C@@H](NC(=O)[C@H](C)NC(=O)[C@H](CCCNC(=N)N)NC(=O)[C@@H](NC(=O)[C@H](CCC(=O)O)NC(=O)[C@@H](N)CCCNC(=N)N)C(C)C)C(C)C)[C@@H](C)O)C(=O)O [compound 482] | 4.49 µM | – | 1.68 µM | – |
| CC[C@H](C)[C@H](NC(=O)[C@H](CCCCN)NC(=O)[C@@H](NC(=O)[C@H](CC(N)=O)NC(=O)[C@H](CCC(=O)O)NC(=O)CN)C(C)C)C(=O)N1CCC[C@H]1C(=O)N[C@H](C(=O)N[C@@H](C)C(=O)O)C(C)C [compound 488] | 1.51 µM | 0.293 µM | – | – |
| CC[C@H](C)[C@H](NC(=O)[C@H](CCC(=O)O)NC(=O)[C@@H](N)CCCCN)C(=O)N[C@@H](CC(C)C)C(=O)N[C@@H](CC(=O)O)C(=O)N[C@@H](CCC(=O)O)C(=O)N[C@@H](C)C(=O)N[C@@H](Cc1ccc(O)cc1)C(=O)N[C@H](C(=O)O)C(C)C [compound 489] | 1.36 µM | – | 6.47 µM | – |
| CC[C@H](C)[C@H](NC(=O)[C@H](CCC(=O)O)NC(=O)[C@@H](N)CCCCN)C(=O)N[C@@H](CC(C)C)C(=O)N[C@@H](CC(=O)O)C(=O)N[C@@H](CCC(=O)O)C(=O)N[C@@H](C)C(=O)N[C@@H](Cc1ccc(O)cc1)C(=O)N[C@H](C(=O)N[C@@H](CCSC)C(=O)N[C@@H](C)C(=O)O)C(C)C [compound 490] | 0.731 µM | 0.252 µM | 11.5 µM | IC50 (B*4501; [2]): 0.123 µM |
| CC[C@H](C)[C@H](NC(=O)[C@@H]1CCCN1C(=O)[C@@H](NC(=O)[C@H](CCCCN)NC(=O)CNC(=O)CNC(=O)[C@H](CC(=O)O)NC(=O)[C@H](C)NC(=O)[C@H](Cc1c[nH]cn1)NC(=O)[C@H](Cc1ccc(O)cc1)NC(=O)[C@H](CCC(=O)O)NC(=O)[C@@H](N)[C@@H](C)O)C(C)C)C(=O)O [compound 492] | 0.632 µM | 0.195 µM | 3.34 µM | – |
| CSCC[C@H](NC(=O)[C@H](CO)NC(=O)[C@H](CCC(=O)O)NC(=O)[C@@H](N)Cc1ccccc1)C(=O)N1CCC[C@H]1C(=O)N[C@@H](CC(N)=O)C(=O)N1CCC[C@H]1C(=O)N[C@@H](CCC(=O)O)C(=O)NCC(=O)O [compound 507] | 6.07 µM | – | 14.8 µM | – |
| C[C@H](NC(=O)CNC(=O)[C@H](CCCNC(=N)N)NC(=O)[C@H](CCC(=O)O)NC(=O)[C@@H]1CCCN1)C(=O)N1CCC[C@H]1C(=O)N1CCC[C@H]1C(=O)N[C@@H](CO)C(=O)N[C@H](C(=O)O)[C@@H](C)O [compound 541] | – | 4.74 µM | 1.12 µM | IC50 (B*4002 (B61); [2]): 7.68 µM; IC50 (B*4501; [2]): 7.77 µM |
| CC(C)[C@H](NC(=O)[C@H](CCC(=O)O)NC(=O)[C@@H](N)CCC(N)=O)C(=O)N[C@H](C(=O)N[C@@H](C)C(=O)N[C@@H](CCC(=O)O)C(=O)N[C@@H](CC(=O)O)C(=O)NCC(=O)N[C@H](C(=O)O)[C@@H](C)O)[C@@H](C)O [compound 547] | 5.21 µM | – | 7.89 µM | IC50 (B*4501; [2]): 1.84 µM |
| CC(C)[C@H](NC(=O)[C@H](C)NC(=O)[C@H](CCCNC(=N)N)NC(=O)[C@@H](NC(=O)[C@H](CCC(=O)O)NC(=O)[C@@H](N)CCCNC(=N)N)C(C)C)C(=O)N[C@H](C(=O)O)[C@@H](C)O [compound 550] | 8.56 µM | 3.14 µM | – | – |
| CC[C@H](C)[C@H](NC(=O)[C@H](CCC(=O)O)NC(=O)[C@H](CCC(=O)O)NC(=O)[C@H](CC(C)C)NC(=O)[C@@H](NC(=O)[C@H](CCC(=O)O)NC(=O)[C@@H](N)Cc1ccccc1)[C@@H](C)O)C(=O)O [compound 551] | 1.52 µM | 7.62 µM | – | – |
| CSCC[C@H](NC(=O)[C@H](C)NC(=O)CNC(=O)[C@H](CO)NC(=O)[C@@H]1CCCN1C(=O)[C@@H](NC(=O)[C@H](CC(C)C)NC(=O)[C@@H]1CCCN1C(=O)[C@H](CCC(=O)O)NC(=O)[C@@H](N)C(C)C)[C@@H](C)O)C(=O)O [compound 559] | 4.65 µM | – | 4.37 µM | IC50 (B*4002 (B61); [2]): 0.584 µM |
| CC(C)C[C@H](NC(=O)[C@H](CCC(=O)O)NC(=O)[C@@H](N)[C@@H](C)O)C(=O)N[C@@H](CCCNC(=N)N)C(=O)N[C@@H](CCCCN)C(=O)N[C@H](C(=O)N[C@@H](CCCCN)C(=O)N[C@H](C(=O)N[C@@H](CC(C)C)C(=O)NCC(=O)O)C(C)C)C(C)C [compound 561] | 0.721 µM | – | 3.65 µM | IC50 (B*4002 (B61); [2]): 0.601 µM |
| C[C@H](NC(=O)[C@H](Cc1c[nH]cn1)NC(=O)[C@H](Cc1ccc(O)cc1)NC(=O)[C@H](CCC(=O)O)NC(=O)[C@@H](NC(=O)[C@H](CCC(=O)O)NC(=O)[C@@H](N)CC(=O)O)[C@@H](C)O)C(=O)N[C@@H](CC(=O)O)C(=O)NCC(=O)O [compound 562] | 0.159 µM | – | – | IC50 (B*4501; [2]): 13.4 µM |
| CC[C@H](C)[C@H](NC(=O)CNC(=O)[C@H](Cc1ccccc1)NC(=O)[C@@H](NC(=O)[C@H](CC(C)C)NC(=O)[C@H](CCC(N)=O)NC(=O)[C@H](CC(C)C)NC(=O)[C@H](Cc1ccc(O)cc1)NC(=O)[C@H](CCC(=O)O)NC(=O)[C@@H](N)CO)C(C)C)C(=O)O [compound 650] | – | – | – | IC50 (B*1801; [3]): 0.0052 µM |
| CC(C)C[C@H](NC(=O)[C@H](Cc1ccc(O)cc1)NC(=O)[C@H](CC(N)=O)NC(=O)[C@H](CCC(=O)O)NC(=O)[C@@H](N)CCC(N)=O)C(=O)N[C@@H](CCC(=O)O)C(=O)N[C@@H](Cc1ccc(O)cc1)C(=O)N[C@@H](CCCNC(=N)N)C(=O)N[C@@H](CCC(N)=O)C(=O)N[C@H](C(=O)O)C(C)C [compound 653] | – | – | – | IC50 (B*1801; [3]): 0.21 µM |
| CC(C)C[C@H](NC(=O)CNC(=O)[C@H](CC(C)C)NC(=O)[C@H](C)NC(=O)[C@H](CCC(=O)O)NC(=O)CNC(=O)[C@H](CCCNC(=N)N)NC(=O)[C@H](C)NC(=O)[C@H](CCC(=O)O)NC(=O)[C@@H](N)CC(C)C)C(=O)N[C@H](C(=O)NCC(=O)N[C@@H](C)C(=O)O)C(C)C [compound 655] | – | – | – | IC50 (B*4402; [3]): 3.89 µM; IC50 (B*4501; [3]): 0.135 µM; IC50 (B*1801; [3]): 0.228 µM |
| CC[C@H](C)[C@H](NC(=O)[C@H](Cc1c[nH]cn1)NC(=O)[C@@H]1CCCN1C(=O)[C@H](CCC(=O)O)NC(=O)CN)C(=O)N[C@@H](CO)C(=O)N[C@@H](Cc1ccc(O)cc1)C(=O)N1CCC[C@H]1C(=O)N1CCC[C@H]1C(=O)N[C@@H](CC(C)C)C(=O)O [compound 682] | – | – | – | IC50 (B*1801; [3]): 7.25 µM |
